# Measured affinities in a library of Ab-14 light chain variants

The measurements come from Li et al. 2023 (doi:10.1038/s41467-023-39022-2) through the FLAb antibody collection.

Target: peptide PDVDLGDISGINAS, taken from heptad repeat 2 (HR2) of SARS-CoV-2 spike.

Parent scFv Ab-14: VH joined to VL by a (GGGGS)3 linker. Changes lie in the light chain CDRs alone.
VH: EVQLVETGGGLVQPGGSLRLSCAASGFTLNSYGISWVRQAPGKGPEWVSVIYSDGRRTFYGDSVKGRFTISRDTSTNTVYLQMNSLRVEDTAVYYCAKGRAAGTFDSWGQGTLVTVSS
VL: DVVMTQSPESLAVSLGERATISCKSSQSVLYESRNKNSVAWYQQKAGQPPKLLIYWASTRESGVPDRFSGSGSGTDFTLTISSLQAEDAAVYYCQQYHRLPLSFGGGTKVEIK

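The variants were designed computationally from a first round of random CDR variants and then made and measured. Their group label is 14L_En_Gibbs (En: ensemble of fine-tuned language models; Gibbs: Gibbs sampling). The scFvs were displayed on barcoded MATa yeast, the peptide on MATalpha yeast. The frequency of each diploid, read from paired DNA barcodes, reflects how well the two displayed proteins bind. A regression on co-assayed BCL2-family reference pairs converts the normalised counts of each replicate to an apparent Kd. The assay was run in six technical replicates.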

The parent's light chain CDRs are KSSQSVLYESRNKNSVA, WASTRES, QQYHRLPLS; each variant's own CDRs replace them letter for letter. Numbers give log10(Kd / nM), so 0 is 1 nM and 3 is 1 µM. Smaller is tighter. Replicates are averaged; those with no signal do not enter the mean. "nd" means that the variant was in the library but no mating with the target was seen in that replicate; the authors take this as a sign of poor binding, and no number exists.

| # | CDR-L1 | CDR-L2 | CDR-L3 | replicates, log10 nM | log10 Kd (nM), mean | signal with controls |
|---|---|---|---|---|---|---|
| 1 | KMTTNLEHQADRKNSIA | EADMVAA | QDYMRLPLI | 2.30 / 1.54 / 1.90 / 1.76 / nd / nd | 1.88 | 0 of 18 |
| 2 | MMGMTVINQSNMIQNVA | DMNERFA | QQYFQLPLS | 1.19 / 0.72 / 0.38 / 0.74 / 0.43 / 0.87 | 0.72 | 0 of 18 |
| 3 | SFPESLPQQQTNVNAVA | GAQHTAV | QQYGRLPLT | -0.02 / 0.19 / -0.16 / -0.16 / -0.09 / 0.34 | 0.02 | 0 of 18 |
| 4 | MLTIEGDETHEKAFSIA | NVTNKEY | QQYARLPLT | 2.01 / 1.38 / 1.96 / nd / 1.80 / 1.98 | 1.83 | 1 of 18 (1.97) |
| 5 | KIMHQHVGNWKTMNNIA | QGDQRCQ | QSYDRLPLS | 1.14 / 0.19 / 0.79 / 1.27 / 0.52 / 0.61 | 0.75 | 0 of 18 |
| 6 | EISILGESVTGHYSNVA | EQHVTEM | QQYFRLPLS | nd / nd / nd / nd / nd / nd | nd | 0 of 18 |
| 7 | KMVKWESSGDRHAANIA | DANKITD | QQYYRLPLA | 0.00 / 0.12 / -0.11 / -0.14 / -0.16 / 0.11 | -0.03 | 0 of 18 |
| 8 | SFTIEMLQQQEQYNSVA | GEQKTVD | QQYGRLPLS | nd / 1.98 / nd / 1.48 / nd / 1.23 | 1.56 | 0 of 18 |
| 9 | NLSDGEMYENATRSNIA | NTSMRDF | QQYNRLPLD | 1.51 / 1.69 / 1.43 / 1.52 / 1.17 / 1.23 | 1.42 | 0 of 18 |
| 10 | KFDMHIPYQGEQKAHIA | GTTNRLT | QQYFKLPLS | 0.85 / 0.57 / 0.65 / 0.41 / 0.67 / 0.72 | 0.64 | 2 of 18 (2.73) |
| 11 | AVSIEHTENTRYWNAIA | DLSQRNN | QQYDQLPLS | 1.94 / nd / nd / 1.44 / 3.01 / 1.51 | 1.98 | 1 of 18 (1.97) |
| 12 | KLGASMYVSTEAKRAIA | QDEMRVH | QQYDRLPLM | nd / 1.89 / 2.49 / 1.67 / 2.72 / 2.68 | 2.29 | 0 of 18 |
| 13 | KLPHLSFVHDREKNNVA | DLNVKCS | QQYDRLPLA | 1.19 / 1.20 / 2.39 / 2.01 / 1.84 / 2.00 | 1.77 | 1 of 18 (2.76) |
| 14 | AFTNSIFYGQRDSNAIA | HADVLEK | QQYFRFPLA | 0.96 / 0.78 / 0.57 / 0.85 / 0.54 / 2.13 | 0.97 | 0 of 18 |
| 15 | KIRFQQYSQSEMEDNIA | QESTRHQ | QQYFRLPLS | 0.67 / 1.19 / 0.41 / 0.56 / 0.83 / 0.77 | 0.74 | 0 of 18 |
| 16 | QVVDEQWAEGQNISSIA | EGEVMKD | QQYNRLPLS | nd / nd / 2.66 / 3.32 / nd / nd | 2.99 | 0 of 18 |
| 17 | QIAMQMYHGLNDNQNIA | DAMTYIK | QQYSRLPLF | nd / nd / nd / nd / nd / nd | nd | 0 of 18 |
| 18 | QLRDAQWAEGMNKQSIA | ENEVSKD | QQYNRLPLS | nd / nd / nd / 1.29 / 1.61 / 1.57 | 1.49 | 0 of 18 |
| 19 | AVSIEHMENTAIWNAIA | DTSLRNN | QQYYQLPLS | nd / 3.86 / nd / nd / nd / 2.49 | 3.18 | 0 of 18 |
| 20 | KIQWYPLENRGTIQAIA | EASTAYN | QQYMHLPLS | nd / nd / nd / nd / nd / nd | nd | 0 of 18 |
| 21 | SLSESEREEFSHEQNIA | DGTEHMR | QQYFQLPLL | 0.68 / 1.11 / 0.78 / 1.26 / 0.92 / 1.03 | 0.96 | 0 of 18 |
| 22 | KIRVHNLMFYQNENSIA | GQSNRAY | QQYYHLPLT | 2.61 / 2.74 / 1.94 / nd / 1.30 / 2.54 | 2.23 | 1 of 18 (1.97) |
| 23 | AFSESANYGQRDSNAIA | GADVVAK | QQYWRLPLT | -0.14 / -0.09 / -0.29 / -0.39 / -0.33 / -0.14 | -0.23 | 1 of 18 (1.70) |
| 24 | SVTRYTDENGLKMSSVA | GAAERMT | QQYHRLPLT | 0.22 / 0.13 / 0.00 / -0.08 / 0.04 / 0.14 | 0.08 | 2 of 18 (3.86) |
| 25 | KLYEAGEESSKVDRSIA | EMITRQE | QQYQRLPLS | 0.47 / 0.26 / 0.60 / -0.06 / 0.56 / 0.49 | 0.39 | 3 of 18 (2.62) |
| 26 | SMAWQQGGYNQQEKAIA | EAATRTQ | QQYFRLPLT | 0.55 / 0.21 / 0.40 / 0.24 / 0.12 / 0.25 | 0.30 | 1 of 18 (4.19) |
| 27 | HLGNEGDNQGNAKKSVA | DQSTVQL | QHYWRLPLT | 1.42 / 1.40 / 1.51 / 1.53 / 1.54 / 1.70 | 1.52 | 1 of 18 (3.52) |
| 28 | YLSMYLDMSDDIQYGVA | DANVANA | QQYFRLPLA | nd / 1.39 / 1.99 / nd / 2.02 / 2.13 | 1.88 | 0 of 18 |
| 29 | KVAQGIFDGKRHSHNIA | EVSHLCD | QQYSRLPLE | 1.22 / 1.06 / 1.13 / 0.85 / 1.72 / 1.30 | 1.21 | 0 of 18 |
| 30 | MFAGAMYGGGNDWNNIA | EAMTYIK | QQYSRLPLI | nd / nd / nd / nd / nd / 2.13 | 2.13 | 0 of 18 |
| 31 | RLLDWAYGWTAKERNIA | DMDIRGA | QQYSHLPLA | 1.87 / 0.93 / 1.57 / 0.98 / 1.08 / 1.67 | 1.35 | 0 of 18 |
| 32 | MLNDAYQGDIAQNQNVA | SADVLTH | QQYNKLPLS | 0.89 / 0.17 / -0.31 / -0.50 / -0.54 / 0.32 | 0.01 | 0 of 18 |
| 33 | ALSFEMSSPGLHSNNVA | SASKLCM | QQYFTLPLS | 0.74 / -0.05 / 0.36 / 1.04 / 0.37 / nd | 0.49 | 0 of 18 |
| 34 | HMHTLMYTANIGENSIA | DANLHVD | QQYFRLPIS | 1.67 / 1.05 / 1.86 / 1.53 / 2.00 / 1.25 | 1.56 | 0 of 18 |
| 35 | KLSMGIEMNTRQNHNMA | EASLKPS | QQYNRLPFF | 0.41 / 0.13 / 0.20 / 0.26 / 0.28 / 0.36 | 0.27 | 0 of 18 |
| 36 | TLGYQPTEMRDNKHAVA | DDEQRDR | QQYMRLPLS | 0.45 / 0.13 / 0.31 / 0.14 / -0.03 / 0.44 | 0.24 | 1 of 18 (2.28) |

Excerpt, the final 5 entries:

CDR-L1	CDR-L2	CDR-L3	replicates, log10 nM	log10 Kd (nM), mean	signal with controls
MLNDAYQGDIAQNQNVA	SADVLTH	QQYNKLPLS	0.89 / 0.17 / -0.31 / -0.50 / -0.54 / 0.32	0.01	0 of 18
ALSFEMSSPGLHSNNVA	SASKLCM	QQYFTLPLS	0.74 / -0.05 / 0.36 / 1.04 / 0.37 / nd	0.49	0 of 18
HMHTLMYTANIGENSIA	DANLHVD	QQYFRLPIS	1.67 / 1.05 / 1.86 / 1.53 / 2.00 / 1.25	1.56	0 of 18
KLSMGIEMNTRQNHNMA	EASLKPS	QQYNRLPFF	0.41 / 0.13 / 0.20 / 0.26 / 0.28 / 0.36	0.27	0 of 18
TLGYQPTEMRDNKHAVA	DDEQRDR	QQYMRLPLS	0.45 / 0.13 / 0.31 / 0.14 / -0.03 / 0.44	0.24	1 of 18 (2.28)

The authors' rule: three or more of the six replicates give a measured affinity, fewer mean a poor binder. As a blank, each scFv also met three strains without target: over all light chain designs, 4% of these pairings were detected, typically at 2.64 and seldom below 1.59. For each scFv, signals with the empty controls are counted beside the result, with their mean in brackets. Values of this round are not directly comparable with the first-round values of the same sequences.